Membrane permeability of cyclic peptides

Collected by the curators of CycPeptMPDB (Li et al. 2023) from Kelly et al. 2021, doi:10.1021/jacs.0c06115.

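Conditions beyond the assay type are not listed; see the original paper. The list need not hold all peptides of the study. Entries at the database's floor value (log10 P of -10) are not listed.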

PAMPA measures passive passage through an artificial lipid membrane.
Permeability is given as log10 of P in cm/s; higher (less negative) is more permeable.

Listed for CC(=O)N1CCC[C@@H]1C(=O)N(C)[C@H](CC(C)C)C(=O)N[C@@H]1C(=O)N[C@@H](CC(C)C)C(=O)N[C@@H](CC(C)C)C(=O)N[C@H](CC(C)C)C(=O)N[C@@H](C)C(=O)N[C@H](CC(C)C)C(=O)N2CCC[C@@H]2C(=O)O[C@@H]1C: PAMPA -8.70 (log10 cm/s). The entry for CC(=O)N1CCC[C@H]1C(=O)N(C)[C@H](CC(C)C)C(=O)N[C@@H]1C(=O)N[C@H](CC(C)C)C(=O)N(C)[C@@H](CC(C)C)C(=O)N[C@@H](CC(C)C)C(=O)N[C@@H](C)C(=O)N[C@@H](CC(C)C)C(=O)N2CCC[C@@H]2C(=O)O[C@@H]1C lists PAMPA -5.57 (log10 cm/s). For CC(=O)N1CCC[C@@H]1C(=O)N(C)[C@@H](CC(C)C)C(=O)N[C@@H]1C(=O)N[C@@H](CC(C)C)C(=O)N[C@H](CC(C)C)C(=O)N[C@@H](CC(C)C)C(=O)N[C@@H](C)C(=O)N[C@@H](CC(C)C)C(=O)N2CCC[C@H]2C(=O)O[C@@H]1C the data give PAMPA -7.10 (log10 cm/s). For CC(=O)N1CCC[C@@H]1C(=O)N(C)[C@H](CC(C)C)C(=O)N[C@@H]1C(=O)N[C@@H](CC(C)C)C(=O)N(C)[C@H](CC(C)C)C(=O)N(C)[C@@H](CC(C)C)C(=O)N(C)[C@@H](C)C(=O)N[C@@H](CC(C)C)C(=O)N2CCC[C@H]2C(=O)O[C@@H]1C the data give PAMPA -5.86 (log10 cm/s). For CC(=O)N1CCC[C@@H]1C(=O)N(C)[C@H](CC(C)C)C(=O)N[C@@H]1C(=O)N(C)[C@@H](CC(C)C)C(=O)N[C@H](CC(C)C)C(=O)N[C@H](CC(C)C)C(=O)N(C)[C@H](C)C(=O)N[C@H](CC(C)C)C(=O)N2CCC[C@H]2C(=O)O[C@@H]1C the data give PAMPA -6.22 (log10 cm/s). CC(=O)N1CCC[C@@H]1C(=O)N(C)[C@H](CC(C)C)C(=O)N[C@@H]1C(=O)N(C)[C@H](CC(C)C)C(=O)N(C)[C@H](CC(C)C)C(=O)N[C@@H](CC(C)C)C(=O)N[C@@H](C)C(=O)N[C@H](CC(C)C)C(=O)N2CCC[C@@H]2C(=O)O[C@@H]1C has PAMPA -5.46 (log10 cm/s). For CC(=O)N1CCC[C@H]1C(=O)N(C)[C@@H](CC(C)C)C(=O)N[C@@H]1C(=O)N[C@@H](CC(C)C)C(=O)N[C@@H](CC(C)C)C(=O)N(C)[C@@H](CC(C)C)C(=O)N(C)[C@@H](C)C(=O)N[C@@H](CC(C)C)C(=O)N2CCC[C@H]2C(=O)O[C@@H]1C the data give PAMPA -6.50 (log10 cm/s).

Listed for CC(=O)N1CCC[C@@H]1C(=O)N(C)[C@H](CC(C)C)C(=O)N[C@@H]1C(=O)N[C@H](CC(C)C)C(=O)N(C)[C@@H](CC(C)C)C(=O)N[C@H](CC(C)C)C(=O)N(C)[C@H](C)C(=O)N[C@@H](CC(C)C)C(=O)N2CCC[C@H]2C(=O)O[C@@H]1C: PAMPA -5.67 (log10 cm/s). The entry for CC(=O)N1CCC[C@H]1C(=O)N[C@@H]1C(=O)N(C)[C@H](CC(C)C)C(=O)N[C@H](CC(C)C)C(=O)N[C@@H](CC(C)C)C(=O)N[C@H](CC(C)C)C(=O)N(C)[C@@H](C)C(=O)N[C@@H](CC(C)C)C(=O)N2CCC[C@@H]2C(=O)O[C@@H]1C lists PAMPA -5.82 (log10 cm/s). Listed for CC(=O)N1CCC[C@@H]1C(=O)N(C)[C@@H](CC(C)C)C(=O)N[C@@H]1C(=O)N[C@H](CC(C)C)C(=O)N(C)[C@H](CC(C)C)C(=O)N(C)[C@H](CC(C)C)C(=O)N(C)[C@H](C)C(=O)N[C@@H](CC(C)C)C(=O)N2CCC[C@H]2C(=O)O[C@@H]1C: PAMPA -5.50 (log10 cm/s). CC(=O)N1CCC[C@H]1C(=O)N(C)[C@@H](CC(C)C)C(=O)N[C@@H]1C(=O)N[C@H](CC(C)C)C(=O)N[C@@H](CC(C)C)C(=O)N[C@H](CC(C)C)C(=O)N[C@H](C)C(=O)N[C@@H](CC(C)C)C(=O)N2CCC[C@H]2C(=O)O[C@@H]1C is reported with PAMPA -6.78 (log10 cm/s). CC(=O)N1CCC[C@@H]1C(=O)N(C)[C@@H](CC(C)C)C(=O)N[C@@H]1C(=O)N(C)[C@H](CC(C)C)C(=O)N(C)[C@@H](CC(C)C)C(=O)N(C)[C@H](CC(C)C)C(=O)N(C)[C@H](C)C(=O)N[C@H](CC(C)C)C(=O)N2CCC[C@H]2C(=O)O[C@@H]1C is reported with PAMPA -5.28 (log10 cm/s).

2 of these entries, quoted again:

CC(=O)N1CCC[C@@H]1C(=O)N(C)[C@H](CC(C)C)C(=O)N[C@@H]1C(=O)N[C@@H](CC(C)C)C(=O)N(C)[C@H](CC(C)C)C(=O)N(C)[C@@H](CC(C)C)C(=O)N(C)[C@@H](C)C(=O)N[C@@H](CC(C)C)C(=O)N2CCC[C@H]2C(=O)O[C@@H]1C is reported with PAMPA -5.86 (log10 cm/s).
CC(=O)N1CCC[C@H]1C(=O)N(C)[C@@H](CC(C)C)C(=O)N[C@@H]1C(=O)N[C@@H](CC(C)C)C(=O)N[C@@H](CC(C)C)C(=O)N(C)[C@@H](CC(C)C)C(=O)N(C)[C@@H](C)C(=O)N[C@@H](CC(C)C)C(=O)N2CCC[C@H]2C(=O)O[C@@H]1C is reported with PAMPA -6.50 (log10 cm/s).